We go through 44 compounds from patent US6846802B2, “Macrocyclic NS3-serine protease inhibitors of hepatitis C virus comprising N-cyclic P2 moieties” (priority 2000, dated 2005).

Amino acid sequences for entries named in this document (tags omitted). Residues count along the entry.
UniProt P27958, 1027-1657: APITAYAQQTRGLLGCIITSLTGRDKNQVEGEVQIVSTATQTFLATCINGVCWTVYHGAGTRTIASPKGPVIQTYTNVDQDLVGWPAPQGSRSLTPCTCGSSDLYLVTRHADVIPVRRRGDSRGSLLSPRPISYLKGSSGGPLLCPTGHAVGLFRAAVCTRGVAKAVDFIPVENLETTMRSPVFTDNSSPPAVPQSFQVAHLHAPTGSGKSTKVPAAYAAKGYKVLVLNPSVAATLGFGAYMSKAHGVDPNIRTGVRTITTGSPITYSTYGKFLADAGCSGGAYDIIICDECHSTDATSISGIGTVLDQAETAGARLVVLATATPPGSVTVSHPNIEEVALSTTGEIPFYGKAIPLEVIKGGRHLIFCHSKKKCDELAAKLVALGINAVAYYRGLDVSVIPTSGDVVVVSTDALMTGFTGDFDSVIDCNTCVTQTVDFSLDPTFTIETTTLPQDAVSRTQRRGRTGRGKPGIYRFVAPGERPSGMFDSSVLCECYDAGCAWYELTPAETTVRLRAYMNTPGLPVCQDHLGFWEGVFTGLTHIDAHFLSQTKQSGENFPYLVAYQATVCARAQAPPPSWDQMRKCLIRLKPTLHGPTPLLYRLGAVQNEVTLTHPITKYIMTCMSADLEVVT
UniProt P27958, 1658-1711: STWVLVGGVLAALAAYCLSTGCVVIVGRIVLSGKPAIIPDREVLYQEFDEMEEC

Starred links: 1 amine or outer side, 2 acyl side, 3 side chain; linkers in the order of their positions; H or OH if unused. Positions of bridges follow the written chain, without caps; N, C: chain ends. Non-standard residues stand in square brackets, D forms with d. Residues, ends and D or L forms follow the SMILES beside them. Tic(7-O(CH2)6CO) = O=C([C@@H]1Cc2ccc(OCCCCCCC(=O)[*:3])cc2CN1[*:1])[*:2]; X2 = CCC[C@@H](N[*:1])C(=O)C(=O)[*:2]; Chg = N[C@H](C(=O)O)C1CCCCC1; Phg = N[C@H](C(=O)O)c1ccccc1

One assay addresses Recombinant heterodimeric HCV NS3/NS4A protease (strain 1a) (Hepatitis C virus genotype 1a, UniProt P27958). Description: biochemical.
Conditions: not given
The term Ki denotes the equilibrium dissociation constant of an inhibitor or competing ligand from its target. For the compound `C=CCNC(=O)C(=O)C(CCCC)NC(=O)[C@@H]1C[C@@H]2CN1C(=O)[C@H](C1CCCCC1)NC(=O)Cc1cccc(c1)OCCC(C)(C)O2` (some centres unmarked) [Compound 84], the inhibitory constant (Ki) was 0.101 to 100 µM. Same read-out and setting: the same measure for `C=CCNC(=O)C(=O)C(CCC)NC(=O)[C@@H]1C[C@@H]2CN1C(=O)[C@H](C1CCCCC1)NC(=O)Cc1cccc(c1)OCCC(C)(C)O2` (some centres unmarked) [Compound 82]: 0.101 to 100 µM; for `CCCC(NC(=O)[C@@H]1C[C@@H]2CN1C(=O)[C@H](C(C)CC)NC(=O)Cc1cccc(c1)OCCC(C)(C)O2)C(=O)C(=O)NCC(=O)N[C@H](C(=O)N(C)C)c1ccccc1` (some centres unmarked) [Compound 101]: 0.001 to 0.1 µM. `C=CCNC(=O)C(=O)C(CCC)NC(=O)C1C[C@@H]2CN1C(=O)[C@H](C1CCCCC1)NC(=O)Cc1cccc(c1)OCCCC(C)(C)O2` (some centres unmarked) [Compound 106]: the Ki fell in the range of 0.101 to 100 µM. As to `CCC[C@@H](NC(=O)[C@@H]1C[C@@H]2CN1C(=O)[C@H](C(C)(C)C)NC(=O)Cc1cccc(c1)OCCCO2)C(=O)C(=O)NCC(=O)N[C@H](C(=O)N(C)C)c1ccccc1` [Compound 12A], the Ki was 0.101 to 100 µM. On to `CCCC(NC(=O)[C@@H]1C[C@@H]2CN1C(=O)[C@H](C1CCCCC1)NC(=O)Cc1cccc(c1)OCCC(C)(C)O2)C(=O)C(=O)NCC(=O)NCc1ccccc1` (some centres unmarked) [Compound 79], for which the Ki is 0.101 to 100 µM. As for `CCC[C@@H](NC(=O)[C@@H]1C[C@@H]2CN1C(=O)[C@H](C1CCCCC1)NC(=O)Cc1ccc(C)c(c1)OCCCO2)C(=O)C(=O)NCC(=O)N[C@H](C(=O)N(C)C)c1ccccc1` [Compound 75A], the Ki was in the range of 0.101 to 100 µM. For `C=CCNC(=O)C(=O)C(CCC)NC(=O)[C@@H]1C[C@@H]2CN1C(=O)[C@H](C1CCCC1)NC(=O)Cc1cccc(c1)OCCC(C)(C)O2` (some centres unmarked) [Compound 104], the inhibition constant Ki was 0.101 to 100 µM. Turning to `CSCCC(NC(=O)[C@@H]1C[C@@H]2CN1C(=O)[C@H](C(C)(C)C)NC(=O)Cc1cccc(c1)OCCCO2)C(=O)C(=O)NCC(=O)N[C@H](C(=O)N(C)C)c1ccccc1` (some centres unmarked) [Compound 46], the Ki is 0.101 to 100 µM. Same read-out and setting: under `CCC[C@@H](NC(=O)[C@@H]1C[C@@H]2CN1C(=O)[C@H](C(C)(C)C)NC(=O)c1cccc(c1)OCCCCO2)C(=O)C(=O)NCC(=O)N[C@H](C(=O)N(C)C)c1ccccc1` [Compound 44A] stands 0.101 to 100 µM; under `CCC[C@@H](NC(=O)[C@@H]1C[C@@H]2CN1C(=O)[C@H](C1CCCCC1)NC(=O)Cc1cccc(c1)OCCCO2)C(=O)C(=O)NCC(=O)N[C@H](C(=O)N(C)C)C1Cc2ccccc2C1` [Compound 69A], 0.101 to 100 µM; under `CCCC(NC(=O)[C@@H]1C[C@@H]2CN1C(=O)[C@H](C1Cc3ccccc3C1)NC(=O)Cc1cccc(c1)OCCC(C)(C)O2)C(=O)C(=O)NCC(=O)N[C@H](C(=O)N(C)C)c1ccccc1` (some centres unmarked) [Compound 68], 0.001 to 0.1 µM. Still for that read-out and setting: under `CCC[C@@H](NC(=O)[C@@H]1C[C@@H]2CN1C(=O)[C@H](C1CCCCC1)NC(=O)Cc1cccc(c1)OCCCS2)C(=O)C(=O)NCC(=O)N[C@H](C(=O)N(C)C)c1ccccc1` [Compound 10A] stands 0.101 to 100 µM.

Turning to `C=CCNC(=O)C(=O)C(CCC)NC(=O)[C@@H]1C[C@@H]2CN1C(=O)[C@H](C(C)C)NC(=O)Cc1cccc(c1)OCCC(C)(C)O2` (some centres unmarked) [Compound 96], the Ki is 0.101 to 100 µM. Same read-out and setting: under `CCCC(NC(=O)[C@@H]1C[C@@H]2CN1C(=O)[C@H](c1ccccc1)NC(=O)Cc1cccc(c1)OCCC(C)(C)O2)C(=O)C(N)=O` (some centres unmarked) [Compound 100] stands 0.101 to 100 µM; under `CCCC(NC(=O)[C@@H]1C[C@@H]2CN1C(=O)[C@H](C1CCCCC1)NC(=O)Cc1cccc(c1)OCCCO2)C(=O)C(=O)NCC(=O)O` (some centres unmarked) [Compound 24], 0.101 to 100 µM. On the same count and under the same terms, under `CC1(C)CCOc2cccc(c2)CC(=O)N[C@@H](C2CCCCC2)C(=O)N2C[C@@H](C[C@H]2C(=O)NC(CC2CC2)C(=O)C(N)=O)O1` (some centres unmarked) [Compound 88] stands 0.101 to 100 µM; under `CCCC(NC(=O)[C@@H]1C[C@@H]2CN1C(=O)[C@H](C1CCCCC1)NC(=O)Cc1cccc(c1)OCCCC(C)(C)O2)C(=O)C(N)=O` (some centres unmarked) [Compound 107], 0.101 to 100 µM; under `CCCC(NC(=O)C1C[C@@H]2CN1C(=O)C(C1CCCCC1)NC(=O)CCc1ccc(cc1)S(=O)(=O)N2)C(=O)C(=O)NCC(=O)N[C@H](C(=O)O)c1ccccc1` (some centres unmarked) [Compound 42], 0.101 to 100 µM. For the compound `CCC[C@H](NC(=O)[C@@H]1C[C@H]2CN1C(=O)[C@H](C(C)(C)C)NC(=O)Cc1cccc(c1)OCCCO2)C(=O)C(=O)NCC(=O)N[C@H](C(=O)N(C)C)c1ccccc1` [Compound 56B], the Ki was 0.101 to 100 µM. Same read-out and setting: the same measure for `C=CCNC(=O)C(=O)C(CCC)NC(=O)[C@@H]1C[C@@H]2CN1C(=O)[C@H](c1ccccc1)NC(=O)Cc1cccc(c1)OCCC(C)(C)O2` (some centres unmarked) [Compound 99]: 0.101 to 100 µM; for `CCC[C@H](NC(=O)[C@@H]1C[C@@H]2CN1C(=O)[C@H](C1CCCCC1)NC(=O)Nc1cccc(c1)OCCCO2)C(=O)C(=O)NCC(=O)N[C@H](C(=O)N(C)C)c1ccccc1` [Compound 26B]: 0.101 to 100 µM. Regarding `CCCC(NC(=O)[C@@H]1C[C@@H]2CN1C(=O)[C@H](C1CCCCC1)NC(=O)Cc1cccc(c1)OCCCO2)C(=O)C(=O)NCC(=O)OCc1ccccc1` (some centres unmarked) [Compound 23], the Ki was in the range of 0.101 to 100 µM. Same read-out and setting: under `CCC[C@H](NC(=O)[C@@H]1C[C@@H]2CN1C(=O)[C@H](C(C)(C)C)NC(=O)Cc1cccc(c1)OCCCO2)C(=O)C(=O)NCC(=O)N[C@H](C(=O)N(C)C)c1ccccc1` [Compound 12B] stands 0.001 to 0.1 µM; under `CCCC(NC(=O)[C@@H]1Cc2ccc3cc2CN1C(=O)[C@H](C1CCCCC1)NC(=O)CCc1ccc(cc1)O3)C(=O)C(=O)NCC(=O)N[C@H](C(=O)N(C)C)c1ccccc1` (some centres unmarked) [Compound 62], 0.101 to 100 µM. For the compound `CCC[C@@H](NC(=O)[C@@H]1C[C@H]2CN1C(=O)[C@H](C(C)(C)C)NC(=O)Cc1cccc(c1)OCCCO2)C(=O)C(=O)NCC(=O)N[C@H](C(=O)N(C)C)c1ccccc1` [Compound 56A], the Ki lay within 0.101 to 100 µM. As to `CCCCC(NC(=O)[C@@H]1[C@H]2OC3CCCOc4cccc(c4)CC(=O)N[C@@H](C4CCCCC4)C(=O)N1C[C@@H]2O3)C(=O)C(=O)NCC(=O)N[C@H](C(=O)N(C)C)c1ccccc1` (some centres unmarked) [Compound 76], the Ki lay within 0.001 to 0.1 µM. For `CCC[C@@H](NC(=O)[C@@H]1[C@H]2OC3CCCOc4cccc(c4)CC(=O)N[C@@H](C4CCCCC4)C(=O)N1C[C@@H]2O3)C(=O)C(=O)NCC(=O)N[C@H](C(=O)OC(C)(C)C)c1ccccc1` [Compound 28A], the inhibition constant (Ki) fell in the range of 0.101 to 100 µM. As for `CCCC(NC(=O)[C@@H]1C[C@@H]2CN1C(=O)[C@H](C1CCCCC1)NC(=O)Cc1cccc(c1)OCCCCO2)C(=O)C(=O)NCC(=O)N[C@H](COC(C)(C)C)c1ccccc1` (some centres unmarked) [Compound 71], the Ki fell in the range of 0.001 to 0.1 µM.

Consider `CCC[C@H](NC(=O)[C@@H]1C[C@@H]2CN1C(=O)[C@H](C(C)(C)C)NC(=O)c1cccc(c1)OCCCCO2)C(=O)C(=O)NCC(=O)N[C@H](C(=O)N(C)C)c1ccccc1` [Compound 44B], for which the Ki lay in the range of 0.101 to 100 µM. As to `CCCC(NC(=O)[C@@H]1C[C@@H]2CN1C(=O)[C@H](C(C)(C)C)NC(=O)Cc1cccc(c1)OCCC(C)(C)O2)C(=O)C(N)=O` (some centres unmarked) [Compound 94], the Ki lay within 0.101 to 100 µM. Still for that read-out and setting: under `CCC[C@@H](NC(=O)[C@@H]1Cc2ccc3cc2CN1C(=O)[C@H](C1CCCCC1)NC(=O)CCCCCCO3)C(=O)C(=O)NCC(=O)N[C@H](C(=O)N(C)C)c1ccccc1` [Compound 57A] ([Chg][Tic(7-O(CH2)6CO)][X2]G[Phg]-NMe2; lactam N-2) stands 0.101 to 100 µM; under `CCC[C@@H](NC(=O)[C@@H]1C[C@@H]2CN1C(=O)[C@H](C1CCCCC1)NC(=O)Cc1cc(C)cc(c1)OCCCO2)C(=O)C(=O)NCC(=O)N[C@H](C(=O)N(C)C)c1ccccc1` [Compound 74A], 0.101 to 100 µM. Same read-out and setting: under `CCC[C@H](NC(=O)[C@@H]1C[C@@H]2CN1C(=O)[C@H](C1CCCCC1)NC(=O)Cc1cccc(c1)OCCCCO2)C(=O)C(=O)NCC(=O)N[C@H](C(=O)N(C)C)C1Cc2ccccc2C1` [Compound 70B] stands 0.001 to 0.1 µM. The same measure, in the same setting: under `CCCC(NC(=O)[C@@H]1C[C@@H]2CN1C(=O)[C@H](C(C)(C)C)NC(=O)Cc1cccc(c1)OCCCO2)C(=O)C(=O)NCC(=O)N[C@H](C(=O)OC(C)(C)C)c1ccc(NS(N)(=O)=O)cc1` (some centres unmarked) [Compound 18] stands 0.001 to 0.1 µM. Consider `C=CCCC(NC(=O)[C@@H]1C[C@@H]2CN1C(=O)[C@H](C1CCCCC1)NC(=O)Cc1cccc(c1)OCCC(C)(C)O2)C(=O)C(=O)NCC=C` (some centres unmarked) [Compound 86], for which the Ki was 0.101 to 100 µM. The same measure, in the same setting: under `CCC[C@H](NC(=O)[C@@H]1C[C@@H]2CN1C(=O)[C@H](C1CCCCC1)NC(=O)Cc1cc(C)cc(c1)OCCCO2)C(=O)C(=O)NCC(=O)N[C@H](C(=O)N(C)C)c1ccccc1` [Compound 74B] stands 0.001 to 0.1 µM; under `CCC[C@@H](NC(=O)[C@@H]1C[C@@H]2CN1C(=O)[C@H](C1CCCCC1)NC(=O)Cc1cccc(c1)OCCCCO2)C(=O)C(=O)NCC(=O)N[C@H](C(=O)N(C)C)c1ccccc1` [Compound 4A], 0.101 to 100 µM; under `CCCC(NC(=O)[C@@H]1C[C@@H]2CN1C(=O)[C@H](C1CCCCC1)NC(=O)CCc1ccc(cc1)OCCCO2)C(=O)C(=O)NCC(=O)N[C@H](C(=O)N(C)C)c1ccccc1` (some centres unmarked) [Compound 64], 0.101 to 100 µM. On the same count and under the same terms, the same measure for `CCCC(NC(=O)C1C[C@@H]2CN1C(=O)C(C1CCCCC1)NC(=O)CCCCc1ccc(cc1)S(=O)(=O)N2)C(=O)C(=O)NCC(=O)N[C@H](C(=O)OC(C)(C)C)c1ccccc1` (some centres unmarked) [Compound 39]: 0.101 to 100 µM; for `CCCC(NC(=O)C1C[C@@H]2CN1C(=O)C(C1CCCCC1)NC(=O)CCc1ccc(cc1)S(=O)(=O)N2)C(=O)C(=O)NCC(=O)N[C@H](C(=O)OC(C)(C)C)c1ccccc1` (some centres unmarked) [Compound 41]: 0.101 to 100 µM; for `CCC[C@H](NC(=O)[C@@H]1[C@H]2OC3CCCOc4cccc(c4)CC(=O)N[C@@H](C4CCCCC4)C(=O)N1C[C@@H]2O3)C(=O)C(=O)NCC(=O)N[C@H](C(=O)N(C)C)c1ccccc1` [Compound 27B]: 0.001 to 0.1 µM.

As for `C=CCC(NC(=O)[C@@H]1C[C@@H]2CN1C(=O)[C@H](C1CCCCC1)NC(=O)Cc1cccc(c1)OCCC(C)(C)O2)C(=O)C(=O)NCCC(=O)OC(C)(C)C` (some centres unmarked) [Compound 90], the Ki fell in the range of 0.101 to 100 µM.

Still in this assay, the particulars now being: pH 6.5; read-out: Ki*.
In the case of `CCCC(NC(=O)C1CC2CN1C(=O)[C@H](C1CCC(C(=O)OC(C)(C)C)CC1)NC(=O)Cc1cccc(c1)OCCCO2)C(=O)C(=O)NCC(=O)N[C@H](C(=O)N(C)C)c1ccccc1` (some centres unmarked) [Compound 14], the Ki lay in the range of 0.001 to 0.1 µM.
